# Antibody variant affinities, Ab-14 light chain, assay 1

The measurements come from Engelhart et al. 2022 (doi:10.1038/s41597-022-01779-4) through the FLAb antibody collection.

Target: peptide PDVDLGDISGINAS, taken from heptad repeat 2 (HR2) of SARS-CoV-2 spike.

Parent scFv Ab-14: VH joined to VL by three GGGGS repeats. Changes lie in the light chain CDRs alone.
VH: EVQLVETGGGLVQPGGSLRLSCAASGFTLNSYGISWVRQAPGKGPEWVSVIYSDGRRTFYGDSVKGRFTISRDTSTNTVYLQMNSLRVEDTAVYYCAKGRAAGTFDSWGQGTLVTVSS
VL: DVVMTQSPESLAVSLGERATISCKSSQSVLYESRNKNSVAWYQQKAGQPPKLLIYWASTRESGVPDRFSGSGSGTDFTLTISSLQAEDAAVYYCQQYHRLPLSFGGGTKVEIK

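The starting antibody came from a phage panning campaign against this peptide. The library (AAYL50) carries one to three amino acid substitutions per variant, with no insertions or deletions. The assay is AlphaSeq: two haploid yeast populations carry antibody and antigen on their surface. Binding brings cells together so that they mate, and sequencing counts the barcode pairs among the diploids. Each replicate has its own calibration line, from reference interactions of the BCL2 family. Mating was done three times.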

Each variant is given by its three light chain CDRs, as the data file delimits them; those of the parent are KSSQSVLYESRNKNSVA, WASTRES, QQYHRLPLS.
All variants listed here change E32 of the VL, counted from its first residue.
Affinities are written as log10 Kd with Kd in nM; a lower number is a better binder.
"nd" marks a missing value. The strain was present, yet no cells mated with the target were sequenced in that replicate, which points to weak or no binding.

For RSSQSLLYWSRNKNSVA | WASTRES | QQYHRLPLS, the assay gave 1.07, 1.09, 1.12. Variant KSSHSVLYHSRNKNSVQ | WASTRES | QQYHRLPLS showed nd, 4.58, nd. Variant KSKQSVLYWSRNKNSVA | WASTRES | RQYHRLPLS gave 2.27, 2.31, 2.63. For KSSQSVLYISRNKNSVA | WKSTRES | QQYHRLPLS, the assay gave nd, nd, nd. For KSFQKVLYMSRNKNSVA | WASTRES | QQYHRLPLS, the assay gave 3.38, 4.09, 2.81. Variant KSSQSVLYQSRNKNSVA | WWSTRES | QQYHRLSLS showed nd, 3.80, 5.01. Variant KYSQSVLYNSRNCNSVA | WASTRES | QQYHRLPLS gave 3.36, 2.20, nd.

Variant ISSQSVLYTSRNKESVA | WASTRES | QQYHRLPLS showed nd, nd, nd. Variant KSSQSVLYWSRNKNSVA | PASTYES | QQYHRLPLS showed nd, nd, nd. Variant KSSASVLYNSRNKNSVS | WASTRES | QQYHRLPLS showed 5.81, nd, 3.72. With AFSQSVLYASRNKNSVA | WASTRES | QQYHRLPLS the result was 0.49, 0.69, 0.59. With KMSQSVLYMSRNKNSVM | WASTRES | QQYHRLPLS the result was nd, nd, nd. With KSSQSVLYGSRNKNSVA | WASTKES | MQYHRLPLS the result was 5.66, nd, 5.15. With KSSQSVLYKSRNKNSVA | WANTRES | DQYHRLPLS the result was 2.99, 2.29, 2.64.

For KSSQSVLYHSRNVNSVA | WASTRES | AQYHRLPLS, the assay gave 1.92, 2.13, 2.34. With KSSQSVLYASENKNSVA | WASTRES | QQYHRLPCS the result was 4.40, 4.81, 4.20. For KSSQSVLYVSRGKNSVA | WASTRES | QQYHRWPLS, the assay gave 2.60, 1.71, nd. For KSSQSELYMSRNKNSVA | WASTRES | QQYHRLPLK, the assay gave 1.75, 1.64, 2.33. With KSSQSVLYISRNKNSVA | WASTRES | QAYHRLPLS the result was 3.86, 2.41, 2.08. Variant KSSQSVLYNSRNKNSVA | FTSTRES | QQYHRLPLS gave 1.33, 1.53, 1.47. Variant KSSQYVLYFSKNKNSVA | WASTRES | QQYHRLPLS showed nd, 2.88, nd.

For KSSQSVLYTSRPKNSVA | WASTRES | QQYHLLPLS, the assay gave nd, nd, nd. Variant KSSQSVLYGSRNKNSVA | WESTVES | QQYHRLPLS gave nd, 4.44, 5.12. For KSSQSVLYSSRNKNSVA | WASTRES | QQLERLPLS, the assay gave 1.39, 1.66, 1.53. For KSSQSVPYVSRNKNSVA | WASTRFS | QQYHRLPLS, the assay gave 1.74, 1.73, 1.65. For ISSQSVLYQSRNKNSVC | WASTRES | QQYHRLPLS, the assay gave nd, nd, nd. With KSSQSVLYCPRNKNSEA | WASTRES | QQYHRLPLS the result was nd, nd, nd. For KSSQSVLVDSRNKTSVA | WASTRES | QQYHRLPLS, the assay gave 1.21, 1.11, 1.39.

For DSSQSVLYFSMNKNSVA | WASTRES | QQYHRLPLS, the assay gave nd, nd, 6.26. Variant NSSQSVLYASRNKNSVA | WASTRES | QVYHRLPLS showed 3.33, 3.30, nd. Variant KSSQSWLYTSRNKNSVA | WASTRES | QQYHRLPLS gave 1.60, 1.64, 2.05. Variant KSSQSVLYVSRNKNSVA | WASTRES | QQMHRLPLW gave nd, nd, nd. With KSSQSVLYWSYNKNSVA | WASTRES | IQYHRLPLS the result was nd, nd, nd. Variant KSLQSVLYFSRNKNSVA | WASTRES | QQYHLLPLS showed nd, nd, nd. For KSSQSGLYKSCNKNSVA | WASTRES | QQYHRLPLS, the assay gave 4.10, 1.99, nd.

With KSSQSVLYQSRNKNSVA | WASTRES | QHYRRLPLS the result was nd, nd, nd. Variant KSSQSVLYLSRNKNSVA | IASTRES | QQYHRTPLS showed nd, nd, nd. With KSSQSVLYHSRNWNSVA | HASTRES | QQYHRLPLS the result was 0.61, 0.70, 0.63. With KSSQSVLYRSRNKNSVA | WASTRES | QQYHILPLS the result was 3.29, 2.48, 3.50. For KSSQSVLYVSRTKNSYA | WASTRES | QQYHRLPLS, the assay gave 4.47, nd, nd.

Empty control strains, which show no peptide, gave a signal in 18% of pairings with library AAYL50; the median was 4.19 and 95% of these signals were weaker than 2.99. No background was subtracted.